Experimental data as given in PubChem BioAssay AID1645848.
Some results for these compounds are left out of this collection, so the calls shown say nothing about other tests.

Details: buffer; pH 7.4; 6.0 h; 150.0 µM

O=C(C1CCC1)N1CCN(C/C=C/c2ccccc2)CC1
solubility kinetic: < 1 µg/mL
